Measurements from patent publication US12472201B2, “Complexing agent salt formulations of pharmaceutical compounds” (Bexson Biomedical, Inc., priority 2020, dated 2025).

Assay: Final pH and average osmolality of API Captisol formulations and API salt solutions
Conditions: Captisol-API HCl salt formulation (70 mg/mL API HCl salt in FB equiv, 1.1 molar equiv Captisol in CapAcid equiv)

CNC1(c2ccccc2F)CCCCC1=O (stereo not shown) [Example 2-F-DCK, 2-(2-fluorophenyl)-2-(methylamino)cyclohexan-1-one]
pH: 6.93
